The values that follow come from ChEMBL document CHEMBL4477224, “Antidiabetic effect, antioxidant activity, and toxicity of 3',4'-Di-O-acetyl-cis-khellactone in Streptozotocin-induced diabetic rats” (Bioorg Med Chem Lett, 2016).

This series is described as follows: Mutagenicity in Salmonella typhimurium TA100 assessed as mutagenic index at 0.007 uM/plate after 48 hrs in absence of S9 fraction by Ames test relative to control. Conditions: salmonella enterica subsp. enterica serovar typhimurium, s9, 48 h. Background: The Ames test uses bacterial strains that need an amino acid and regain growth without it when mutated back.

Consider `CN(N=O)C(=N)N[N+](=O)[O-]`, for which the Ratio was determined as 22.9.
